{"sequences": {"note": "Sequences of proteins named here, by UniProt entry; tags and fusion partners are left off. Residues count along the entry.", "UniProt P05121, 24-402": "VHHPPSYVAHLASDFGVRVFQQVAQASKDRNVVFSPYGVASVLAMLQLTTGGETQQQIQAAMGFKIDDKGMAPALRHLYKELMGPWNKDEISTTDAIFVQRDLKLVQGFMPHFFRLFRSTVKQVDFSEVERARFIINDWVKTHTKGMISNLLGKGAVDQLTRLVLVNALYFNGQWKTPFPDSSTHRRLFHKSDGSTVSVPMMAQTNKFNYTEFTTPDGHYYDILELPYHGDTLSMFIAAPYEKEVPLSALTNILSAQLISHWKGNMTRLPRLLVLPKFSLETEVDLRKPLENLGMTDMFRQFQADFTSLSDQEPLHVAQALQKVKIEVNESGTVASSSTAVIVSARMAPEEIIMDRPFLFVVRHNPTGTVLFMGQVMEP"}, "source": "patent US8044236B2", "about": "“Carboxilic acid derivatives” (Institute of Medicinal Molecular Design, Inc., priority 2006, dated 2011)", "data": [{"molecular_target": "T1, recombinant human PAI-1 (Homo sapiens, UniProt P05121)", "experiment": "Test Example 1: human PAI-1 inhibitory activity (tPA fluorogenic substrate, pH7.5 Tris buffer)", "assay_type": "biochemical", "parameters": "purchased Molecular Innovations, Inc", "details": "pH 7.5, read-out: Inhibition Rate of Human PAI-1 Activity (%)", "units": {"inhibition at 5 µM": "%", "inhibition at 10 µM": "%", "inhibition at 25 µM": "%"}, "values": [{"smiles": "O=C(O)/C=C/c1cc(-c2ccccc2[N+](=O)[O-])ccc1OCc1ccccc1", "note": "[Compound 7, (E)-3-(4-benzyloxy-2′-nitrobiphenyl-3-yl)propenoic acid]", "inhibition at 5 µM": 14, "inhibition at 10 µM": 21}, {"smiles": "O=C(O)/C=C/c1cc(-c2ccc(OC(F)(F)F)cc2)ccc1OCc1ccc(Cl)cc1", "note": "[Compound 19, (E)-3-[4-(4-chlorobenzyloxy)-4′-(trifluoromethoxy)biphenyl-3-yl]propenoic acid]", "inhibition at 5 µM": 36, "inhibition at 10 µM": 65, "inhibition at 25 µM": 92}, {"smiles": "O=C(O)CCc1cc(-c2ccc(OC(F)(F)F)cc2)ccc1OCc1ccc(Cl)cc1", "note": "[Compound 20, 3-[4-(4-chlorobenzyloxy)-4′-(trifluoromethoxy)biphenyl-3-yl]propanoic acid]", "inhibition at 10 µM": 13, "inhibition at 25 µM": 77}, {"smiles": "Cc1ccc(-c2ccc(OCc3ccc(C(C)(C)C)cc3)c(/C=C/C(=O)O)c2)cc1", "note": "[Compound 46, (E)-3-{4-[4-(tert-butyl)benzyloxy]-4′-methylbiphenyl-3-yl}propenoic acid]", "inhibition at 5 µM": 25, "inhibition at 10 µM": 56, "inhibition at 25 µM": 91}, {"smiles": "Cc1ccc(-c2ccc(OCc3ccc(C(C)(C)C)cc3)c(CCC(=O)O)c2)cc1", "note": "[Compound 47, 3-{4-[4-(tert-butyl)benzyloxy]-4′-methylbiphenyl-3-yl}propanoic acid]", "inhibition at 5 µM": 27, "inhibition at 10 µM": 59, "inhibition at 25 µM": 97}, {"smiles": "O=C(O)/C=C/c1cc(-c2ccccc2)ccc1OCc1ccccc1", "note": "[Compound 50, (E)-3-(4-benzyloxybiphenyl-3-yl)propenoic acid]", "inhibition at 10 µM": 15, "inhibition at 25 µM": 31}, {"smiles": "CC(C)(C)c1ccc(COc2ccc(-c3ccc(Cl)cc3)cc2CCC(=O)O)cc1", "note": "[Compound 55, 3-{4-[4-(tert-butyl)benzyloxy]-4′-chlorobiphenyl-3-yl}propanoic acid]", "inhibition at 5 µM": 23, "inhibition at 10 µM": 56, "inhibition at 25 µM": 96}]}, {"molecular_target": "T1, recombinant human PAI-1", "experiment": "biochemical", "details": "not given", "description": "<Compotion of pH7.4 HEPES Buffer>\n(§1) • 0.1 M HEPES • 0.1 M NaCl • […] • 0.1% Polyethylene glycol 8,000 (Hampton Research Corporation) • 2 mM Dimethyldecylphoshine oxide [Apo-10] (Fluka Corporation) [Results]", "units": {"IC50": "nM"}, "values": [{"smiles": "CCCCc1ccc(COc2ccc(-c3ccc(OC(F)(F)F)cc3)cc2CCC(=O)O)cc1", "note": "[Compound 35, 3-[4-(4-butylbenzyloxy)-4′-(trifluoromethoxy)biphenyl-3-yl]propanoic acid]", "IC50": 1410}]}, {"molecular_target": "T2, recombinant rat PAI-1 (Rattus norvegicus, UniProt P20961)", "T2 sequence (P20961 24-402)": "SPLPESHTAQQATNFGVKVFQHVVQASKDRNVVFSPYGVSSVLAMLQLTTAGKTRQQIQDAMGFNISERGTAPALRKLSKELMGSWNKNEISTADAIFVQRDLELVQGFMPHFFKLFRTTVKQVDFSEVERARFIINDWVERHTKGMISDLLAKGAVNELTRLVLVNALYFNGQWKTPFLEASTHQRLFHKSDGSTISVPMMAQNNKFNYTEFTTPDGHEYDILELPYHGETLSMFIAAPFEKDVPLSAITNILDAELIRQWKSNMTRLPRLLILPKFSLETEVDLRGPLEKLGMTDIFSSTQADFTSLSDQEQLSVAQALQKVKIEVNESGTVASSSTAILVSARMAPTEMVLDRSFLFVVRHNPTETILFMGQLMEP", "experiment": "biochemical", "details": "not given", "description": "as §1", "units": {"IC50": "nM"}, "values": [{"smiles": "CCCCc1ccc(COc2ccc(-c3ccc(OC(F)(F)F)cc3)cc2CCC(=O)O)cc1", "note": "[Compound 35, 3-[4-(4-butylbenzyloxy)-4′-(trifluoromethoxy)biphenyl-3-yl]propanoic acid]", "IC50": 3310}]}]}
